The subject of this test is plasma extravasation induced by capsaicin in trachea of guinea pigs. Briefly: Inhibitory effect on plasma extravasation induced by capsaicin in trachea of guinea pigs. Format: in vivo. The conditions noted are these: Cavia porcellus, iv, 5 minutes before capsaicin, Evans' blue dye in trachea, read-out: ID50, μg/kg. As to the method: Inhibitory effect on plasma extravasation induced by capsaicin in trachea of guinea pigs.
Guinea pigs (Hartley type white male guinea pige), (n=6) were anesthetized with 35 mg/kg of pentobarbital injected intraperitoneally (i.p.), then test compounds were administered intravenously (i.v.). After 5 minutes, a mixed solution of capsaicin ([…]) and Evans' blue dye (20 mg/kg) was administered intravenously to cause reaction. Ten minutes later, test animals were sacrificed by cutting the aorta, then perfused through pulmonary artery with 50 ml of physiological saline. The trachea was excised, and its wet weight was measure. The trachea was incubated at room temperature in 1 ml of acetone-0.3% sodium sulfate (7:3) overnight and Evans' blue dye was extracted from the trachea. The extract solution was centrifuged at 2800 rpm for 5 minutes. The amount of Evans' blue dye in the supernatant was quantified by measuring absorbance at […].
The reaction of accelerating the permeability of blood vessels is expressed in terms of the amount of Evans' blue (μg) per trachea unit weight (g) and the effect of drug was evaluated by calculating the degree of inhibition (% inhibition) according to the following equation: […]

Regarding `Cc1ccc(-c2c3n(c(=O)c4ncccc24)CC[C@@H](C)CN(Cc2cc(C(F)(F)F)cc(C(F)(F)F)c2)C3=O)cc1` [Reference Example 72, (9R)-7-[3,5-Bis(trifluoromethyl)benzyl]-6,7,8,9,10,11-hexahydro-9-methyl-5-(4-methylphenyl)-6,13-dioxo-13H-[1,4]diazocino[2,1-g][1,7]naphthyridine], the ED50 was 2.6 µg/kg.

The values above are taken from patent US20020132817A1, “Heterocyclic compounds, their production and use” (priority 1998, published 2002).
